Here are results for 1 compound from ChEMBL document CHEMBL1133094 (J Med Chem, 2000).

Chains of the proteins cited; added tags and fusions are not shown.
UniProt P61169, whole entry: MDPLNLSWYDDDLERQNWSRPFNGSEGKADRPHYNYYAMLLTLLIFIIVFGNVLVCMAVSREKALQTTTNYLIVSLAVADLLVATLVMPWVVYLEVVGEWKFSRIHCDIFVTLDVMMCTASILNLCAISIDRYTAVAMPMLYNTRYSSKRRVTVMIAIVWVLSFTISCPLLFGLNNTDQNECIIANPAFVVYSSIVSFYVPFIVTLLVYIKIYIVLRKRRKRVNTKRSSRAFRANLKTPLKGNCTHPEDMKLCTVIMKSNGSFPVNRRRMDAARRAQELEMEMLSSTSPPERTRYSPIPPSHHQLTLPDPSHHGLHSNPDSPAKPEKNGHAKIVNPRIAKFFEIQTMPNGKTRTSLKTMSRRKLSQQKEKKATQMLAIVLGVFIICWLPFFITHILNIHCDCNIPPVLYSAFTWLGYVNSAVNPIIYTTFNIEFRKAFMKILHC

This test addresses D(2) dopamine receptor (Rattus norvegicus, UniProt P61169). The experiment in a line: Binding Affinity was determined against Dopamine receptor D2 in rat striatal membranes using [3H]- spiperone radioligand. The test is classed as cell membranes, Striatum, Membrane.

As a reminder, the Ki is the equilibrium dissociation constant of an inhibitor or competing ligand from its target. A low value points to higher affinity. `CN1CCc2cccc3c2[C@H]1Cc1ccc(O)c(O)c1-3` [APOMORPHINE] had a Ki of 55 nM. That is a double-digit nanomolar value.
